The text below walks through data of paper PMC11822212, “High-throughput screening identifies Aurora kinase B as a critical therapeutic target for Merkel cell carcinoma” (Nature Communications, 2025).

SMILES strings stand for the structures. Where a name gives a salt, the structure may show the parent alone.

Test [1] has as its system control cell lines (HACAT, HEK293T, CRL-7250, NIH-3T3). As to the kind of experiment: qHTS cell viability, control cell lines as a group (mean AUC, Control.avg). In kind it is cell-based.
Test [2] deals with VP-MCC cell lines (WAGA, MKL-1, MKL-2). The experiment in a line: qHTS cell viability, VP-MCC cell lines as a group (mean AUC, VP.MCC.avg).
The subject of test [3] is VN-MCC cell lines (MCC13, MCC26, UISO). As to the kind of experiment: qHTS cell viability, VN-MCC cell lines as a group (mean AUC, VN.MCC.avg). For orientation: Quantitative high-throughput screening tests each substance at several concentrations.
For test [4], the system named is MCC cell lines (WAGA, MKL-1, MKL-2, MCC13, MCC26, UISO). As to the kind of experiment: qHTS cell viability, all six MCC cell lines as a group (mean AUC, MCC.avg).
The next test relates to HACAT cells. As to the kind of experiment: qHTS cell viability (CellTiter-Glo, 72 h; primary screen), control cell line.
Another test concerns NIH-3T3 cells. The test is described as above.
For a further test, the system named is MCC13 cells (VN-MCC). As to the kind of experiment: qHTS cell viability (CellTiter-Glo, 72 h; primary and follow-up small molecule screen).
For a further test, the system named is MCC26 cells (VN-MCC). The description is as above.
A further test concerns UISO cells (VN-MCC). The description is as above.
For another test, the system named is WAGA cells (VP-MCC). Described as above.
The next test relates to MKL-1 cells (VP-MCC). The test is described as above.
In another test the test system is MKL-2 cells (VP-MCC). The description is as above.

Regarding `COc1cc2nc(N3CCN(C(=O)C4CCCO4)CC3)nc(N)c2cc1OC` (stereo not drawn) [Terazosin hydrochloride], in test [1], the Control_Avg_AUC was 478.215. The same molecule came in with a VP-MCC_Avg_AUC in [2] of 426.979. This molecule came in with a VN-MCC_Avg_AUC in test [3] of 427.716. In addition, in test [4], the MCC_Avg_AUC is recorded as 427.348. In the test on HACAT cells, this molecule registered an HACAT_AUC of 474.971. This molecule also gave an NIH3T3_AUC in the test on NIH-3T3 cells of 481.633. For the same molecule, the MCC13_AUC in the test with MCC13 cells (VN-MCC) was found to be 440.072. This molecule also came in with an MCC26_AUC in the test with MCC26 cells (VN-MCC) of 406.196. The UISO_AUC in the test with UISO cells (VN-MCC) came to 436.881. Also, the WAGA_AUC in the test with WAGA cells (VP-MCC) came to 445.068. In the test with MKL-1 cells (VP-MCC), this molecule showed an MKL1_AUC of 422.554. The MKL2_AUC with MKL-2 cells (VP-MCC) came out at 413.313.
